Data published in ChEMBL document CHEMBL5113526, “Design, Synthesis, and Biological Evaluation of Androgen Receptor Degrading and Antagonizing Bifunctional Steroidal Analogs for the Treatment of Advanced Prostate Cancer” (J Med Chem, 2022).

Tested on: LNCaP C4-2B
Experiment: animal or person
Settings: Homo sapiens

IC50: 22.2 µM
SMILES: CNC(=O)c1ccc(N2C(=S)N(c3ccc(C#N)c(C(F)(F)F)c3)C(=O)C2(C)C)cc1F [ENZALUTAMIDE]
